Drawing on patent publication US9376425B2, “Heterocyclic compounds as MDM2 inhibitors for the treatment of cancer” (AMGEN INC., priority 2011, dated 2016), this text covers IC50 for 1 compound.

Protein sequences, listed by entry. Tags and fused reporters are not part of them. Residues count along the entry.
UniProt Q00987, 1-188 limits assumed: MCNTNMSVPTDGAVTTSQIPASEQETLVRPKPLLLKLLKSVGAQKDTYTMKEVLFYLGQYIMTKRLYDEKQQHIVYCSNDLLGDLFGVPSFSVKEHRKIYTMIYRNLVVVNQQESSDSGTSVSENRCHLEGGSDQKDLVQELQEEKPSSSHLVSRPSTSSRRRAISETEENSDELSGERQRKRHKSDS

Broadly, the IC50 is the concentration at which inhibition is half-maximal.

The target in the experiment is human MDM2 (GST-hMDM2 1-188), interaction with biotinylated-p53 (1-83) (Homo sapiens, UniProt Q00987). Description: improved HTRF assay (HTRF2 assay), inhibition of HDM2-p53 interaction. The settings on record: read-out: HTRF2 IC50; 0.2 nM GST-hMDM2, 0.5 nM biotinylated-p53, 100 mM KF. Background: TR-FRET usually uses a lanthanide donor and a delayed reading to cut background.

Structures are written as SMILES.

Regarding `CC(C)S(=O)(=O)C(C)[C@H](C1CC1)N1C(=O)C(CC(=O)O)O[C@H](c2cccc(Cl)c2)[C@H]1c1ccc(Cl)cc1` (single isomer, unassigned), the IC50 amounted to 3 nM.
